Test results as given in US20240058455A1, “BIOORTHOGONAL LINKERS AND REACTIONS” (The General Hospital Corporation, priority 2020, published 2024).

What was measured:
EGFR-positive A431 cells = assay: Imaging of A431 cells stained with Cetux-C2TCO-AF594, click-to-cut with HPA; assay type: cell-based
Description: (§1) At an average DOL of 0.9, Cetux-C2TCO-AF594 prepared with a high concentration of 21 (˜250 μM) achieved >97% cleavage and the respective probe was therefore carried forward for further investigation. EGFR-positive A431 cells were stained with Cetux-C2TCO-AF594, washed and imaged to establish target-specific staining and baseline brightness (ON-state). […] In contrast to image cycling based on click-driven quenching, bioorthogonal disassembly of antibody-C2TCO probes enables multiplexed imaging without any potential rebound in brightness (e.g., caused by degradation of quenched conjugates) as the dye is cleaved and thus removed upon click-to-cut reaction with Tz.

[1] = C2TCO cleavage of clicked antibody conjugates after reaction with Tz; settings: average DOL 0.9, prepared with ~250 μM 21
Description: Azido-antibodies were tested at different degrees of labeling (DOL) and the C2TCO cleavage of the clicked conjugates was analyzed after reaction with Tz. No cross-reactivity of 21 with azides was observed (at concentrations of up to 100 mM) in various solvents (incl. PBS), but when clicked to the antibody, a consistent trend toward lower C2TCO reactivity was noted as the number of azides per antibody increased.
as §1

Cetux-C2TCO-AF594: cetuximab N3 click-conjugated to DBCO-C2TCO-AF594 (21)
residual background signal, of the peak staining intensity (EGFR-positive A431 cells; HPA 500 μM in PBS, line-intensity profile): less than 3% | time to near-quantitative bioorthogonal disassembly (EGFR-positive A431 cells; cell imaging, HPA): ≤ 6 min | cleavage [1]: > 97%
